For one test, the system named is HER2-low patients. The conditions noted are these: PMID 31821109; cited from earlier work.
For test [1], the system named is BCAR4 gene fusion (L-B fusion) expressing cells. Briefly: Cell growth (MTT) assay with Herceptin (FIG. 43). Type of test: cell-based. As to conditions: L-B fusion expression, preliminary data. From the text:
FIG. 43 is a graph showing BCAR4-expressing cells respond to Herceptin (trastuzumab) in accordance with the present disclosure.
BCAR4-expressing cells respond to Herceptin (trastuzumab) (see e.g., FIG. 43).

Turning to trastuzumab [Herceptin], the “effectiveness in HER2-low patients” value in the test with HER2-low patients is reported as “ineffective”. Also, the “cell response in cell growth (MTT) assays” value in test [1] is on record as “increased cell response”.

The values above are taken from patent US20240124610A1, “METHODS FOR TREATING HER2-NEGATIVE OR HER2-LOW CANCER” (Washington University, priority 2022, published 2024).
